Screens as filed in PubChem.
Rows were chosen to be rich in hits. Some 1.6% of all compounds tested hit in one or more screens of this group.
CAL PDZ FP-1 – inhibitors of human CAL PDZ peptide binding; actives 0.02% (n = 330,000); purified CAL PDZ, TMR-peptide fluorescence polarization, 1 h; inhibition, % at 20 µM; Q9HD26; AID 504414;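 active = highest replicate inhibition of at least 40%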;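 note: plate controls were DMSO neutral control wells for no effect and unlabeled competitor peptide control wells for full effect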
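material = purified tagged CAL PDZ domain construct (CerCALP) | buffer or medium = sodium phosphate/NaCl buffer pH 7.4 with TCEP, IgG, Thesit | reagent = TMR-labelled reporter peptide T*-PRC34 bound in PDZ groove | incubation = 1 h room-temperature incubation prior to read | measured by = fluorescence polarization (mP) | evaluation = percent inhibition from loss of millipolarization | control set = unlabelled peptide and DMSO controls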
PglD DTNB – blocks C. jejuni PglD acetyltransferase activity; inhibition, % at 12.5 µM; AID 602405; purified PglD enzyme, DTNB colorimetric CoA detection; actives 0.098% (n = 360,000); in the data active = inhibition above about 16%, passing the limit was not always enough
ARNT TACC3 PPI – ARNT/TACC3 interaction disruption | Q9Y6A5 | AlphaScreen His-ARNT PAS-B/GST-TACC3 binding, luminescence; TACC3 fragment carries E629A point mutation | inhibition, % at 9.99 µM | actives 0.66% (n = 390,000);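 active = mean inhibition of replicates at least 50% and at least half of replicates each reaching 50%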;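 note: 0% = complete ARNT plus TACC3 wells and 100% = ARNT alone without TACC3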
Vif inh – inhibitors of HIV Vif; inhibition, % at 7.49 µM; HEK293T cells, Vif self-association by quenched fluorescence, imaging, 24 h; actives 0.35% (n = 340,000); AID 602346; in the data active = inhibition above about 50%, passing the limit was not always enough
CAL PDZ FP-2 – inhibitors of human CAL PDZ peptide binding. Q9HD26. purified CAL PDZ, TMR-peptide fluorescence polarization, 1 h. inhibition, % at 24.9 µM. actives 0.92% (n = 300,000). AID 602252;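 active = mean inhibition of at least 30% with at least half of replicates also reaching 30%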;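 note: 0% = DMSO neutral control and 100% = excess unlabeled competitor peptide PRC23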
Yeast UUG start – modulators of start codon recognition fidelity in yeast; AID 602363; hit rate 0.13% among 350,000; activity score, % at 18.7 µM; S. cerevisiae UUG-firefly luciferase reporter, luminescence/redox ratio;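 active = replicate mean at a twofold rise or more, about +100% in these data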;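 note: firefly luciferase made from a UUG start codon reports start codon fidelity; reporter light over untreated wells divided by growth signal over untreated wells; some hits fall short of that in this replicate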
Numbers without * were called inactive; / = not tested or not shown.

SMILES | CAL PDZ FP-1 | PglD DTNB | ARNT TACC3 PPI | Vif inh | CAL PDZ FP-2 | Yeast UUG start
CCN(CC)c1ccc(/C=N/NC(=S)NC)c(O)c1 | -3.6 | / | 59.6* | 7.6 | -0.5 | /
CCN(CC)c1ccc(N=Cc2ccc(N(CC)CC)cc2O)cc1 | -1.7 | / | 3.6 | -5.9 | / | /
CCN(CC)c1ccc(/C=N/N=C(N)N)c(O)c1 | -1.8 | / | 48.1* | 64.6* | -0.1 | /
Oc1ccccc1C1SC(c2ccccc2O)SC(c2ccccc2O)S1 (stereo not drawn) | -0.2 | -4.2 | 2.1 | 59.5* | / | 7.4
CCCC#Cc1cnc2c(c1)C(=O)N([C@H](C)CO)C[C@H](C)[C@@H](CN(C)C(=O)Nc1c(C)noc1C)O2 | / | 2.9 | -1.9 | / | / | 0.7
C/C(CC(=O)Nc1ccc(Br)cc1)=N\NC(=O)Cc1csc(N)n1 | -0.5 | 0.5 | 0.8 | -4.0 | 0.6 | -27.7
C/C(CC(=O)Nc1ccccc1C)=N\NC(=O)Cc1csc(N)n1 | -1.1 | / | -5.5 | -2.9 | 44.0* | /
COC(=O)C1=NNC(C(=O)c2ccco2)C1c1ccc(OC)cc1 (stereo not drawn) | -0.6 | -2.8 | -53.6 | 52.5* | / | -11.3
COC(=O)C1=NNC(C(=O)c2ccco2)C1c1ccccc1 (stereo not drawn) | -1.0 | / | -4.2 | 1.6 | -2.0 | /
COc1ccc(OC(=O)c2cc(S(=O)(=O)N3CCCC3)ccc2Cl)cc1 | -0.2 | -3.8 | -2.8 | 2.9 | -0.4 | -13.1
CCN1CCN(S(=O)(=O)c2ccc(Cl)c(C(=O)Oc3ccc(CC(=O)OC)cc3)c2)CC1 | -0.8 | -0.1 | 0.1 | 0.9 | 80.3* | -8.2
CCCNC(=O)Nc1ccc2c(c1)OC[C@@H](C)N(CCC(F)(F)F)C[C@H](C)[C@@H](OC)CN(C)C2=O | / | -3.9 | -1.9 | / | / | /
Cc1ccccc1/C=N/Nc1nc2ccccc2[nH]1 | 0.1 | / | 18.5 | -10.0 | 1.6 | /
C(=N\Nc1nc2ccccc2[nH]1)/C1CCCCC1 | -1.5 | / | 45.9* | 3.2 | 3.9 | /
Cc1[nH]c2ccccc2c1/C=N/Nc1nc2ccccc2[nH]1 | 0.1 | -5.1 | 45.4* | -2.1 | / | -16.6
C(=N\Nc1nc2ccccc2[nH]1)/c1cccc2cccnc12 | -2.2 | 1.6 | 60.7* | -1.7 | / | -20.5
O=C(CCN1CCCCC1)NCC[C@@H]1CC[C@H](NC(=O)C2CCCC2)[C@@H](CO)O1 | / | 2.0 | -4.7 | / | / | 3.0
CC(C)CC#Cc1cnc2c(c1)C(=O)N([C@H](C)CO)C[C@@H](C)[C@H](CN(C)C(=O)c1ccccc1)O2 | / | -0.2 | 0.8 | / | / | 8.0
COCC#Cc1cnc2c(c1)C(=O)N([C@H](C)CO)C[C@@H](C)[C@H](CN(C)Cc1ccc(-c3ccccc3)cc1)O2 | / | / | / | / | / | 10.3
COc1cccc(C2C(C(=O)c3cc4ccccc4o3)=C(O)C(=O)N2CCN(C)C)c1OC (stereo not drawn) | / | 6.4 | -4.5 | 35.1 | 33.1* | -29.9
COc1cccc(C2C(C(=O)c3ccco3)=C(O)C(=O)N2CCN(C)C)c1OC (stereo not drawn) | -1.3 | / | -0.7 | 8.5 | -2.6 | /
CC(C)S(=O)(=O)c1cnc(-c2ccccn2)nc1N | -0.8 | / | 74.2* | 8.4 | -2.4 | /
COc1ccc(-c2nc(-c3ccccn3)ncc2S(C)(=O)=O)cc1 | -2.5 | / | 13.5 | -2.3 | -15.5 | /
O=C(Nc1ccc2oc(-c3ccccc3Cl)nc2c1)c1ncn[nH]1 | -4.4 | -107.9 | 49.9* | / | -6.7 | -7.5
O=C(Nc1ccc(N2CCOCC2)c(Cl)c1)c1ccc(Cl)cc1 | -0.7 | -7.4 | -1.5 | 1.1 | -4.1 | -6.7

Look-ups from the results shown:
Result of `Cc1ccccc1/C=N/Nc1nc2ccccc2[nH]1` under CAL PDZ FP-2: 1.6
Result of `CCN(CC)c1ccc(/C=N/N=C(N)N)c(O)c1` under CAL PDZ FP-2: -0.1
Result of `O=C(Nc1ccc2oc(-c3ccccc3Cl)nc2c1)c1ncn[nH]1` under Yeast UUG start: -7.5

CAL PDZ FP-2, entries above that show a hit.
SMILES | CAL PDZ FP-1 | PglD DTNB | ARNT TACC3 PPI | Vif inh | CAL PDZ FP-2 | Yeast UUG start
C/C(CC(=O)Nc1ccccc1C)=N\NC(=O)Cc1csc(N)n1 | -1.1 | / | -5.5 | -2.9 | 44.0* | /
CCN1CCN(S(=O)(=O)c2ccc(Cl)c(C(=O)Oc3ccc(CC(=O)OC)cc3)c2)CC1 | -0.8 | -0.1 | 0.1 | 0.9 | 80.3* | -8.2
COc1cccc(C2C(C(=O)c3cc4ccccc4o3)=C(O)C(=O)N2CCN(C)C)c1OC (stereo not drawn) | / | 6.4 | -4.5 | 35.1 | 33.1* | -29.9

Additional results follow:
SMILES | CAL PDZ FP-1 | PglD DTNB | ARNT TACC3 PPI | Vif inh | CAL PDZ FP-2 | Yeast UUG start
O=C(Nc1ccc(N2CCOCC2)c(Cl)c1)c1ncn[nH]1 | -0.4 | -5.8 | 58.1* | 0.1 | -1.1 | -34.4
COc1cccc(-c2ccc3c(c2)[C@H]2[C@H](CCN2S(=O)(=O)c2ccc(F)cc2)[C@H](CO)N3C)c1 | / | -2.0 | -1.5 | / | / | 17.1
CCCN1C[C@@H](C)[C@H](OC)CN(C)C(=O)c2cc(NS(C)(=O)=O)ccc2OC[C@@H]1C | / | 0.2 | -8.3 | / | / | /
CNC(=O)NC(=O)Cn1nc2n(c1=O)-c1ccccc1SC2 | 0.1 | / | -0.8 | -10.0 | 53.2* | /
CCC(=O)N1CCCCN2[C@H](CO)[C@H](c3ccc(C#Cc4ccccc4F)cc3)[C@@H]2C1 | / | 13.4 | -3.2 | / | / | -0.8
Cc1cccc(NC(=O)N2CCC(NC(=O)c3ccco3)CC2)c1 | / | / | -5.4 | -5.8 | 0.9 | /
O=C(NC1CCN(C(=O)Nc2cccc(Cl)c2)CC1)c1ccco1 | -0.1 | 0.5 | 5.6 | 5.0 | 58.1* | -3.4
COc1ccccc1-n1c(SCC(=O)O)nc2c(sc(=S)n2-c2ccc(Cl)c(C)c2)c1=O | -4.1 | -1.5 | -8.2 | -5.3 | -2.1 | -19.1
Cc1cc(-n2c(=S)sc3c(=O)n(-c4ccc(F)cc4)c(SCC(=O)O)nc32)ccc1Cl | -1.1 | -0.4 | 22.3* | -21.1 | -4.9 | -1.8
CC(C)NC(=O)N(C)C[C@@H]1Oc2ncc(-c3cncnc3)cc2C(=O)N([C@H](C)CO)C[C@@H]1C | / | -0.8 | -1.1 | / | / | -5.8
CC(C)(Oc1ccc(Cl)cc1)C(=O)NCc1ccc(S(N)(=O)=O)cc1 | -0.3 | / | -3.7 | -3.5 | 77.3* | /
Cc1cccc(-n2c(SCC(=O)N3CCCC3)nnc2-c2ccccn2)c1C | -2.4 | 3.0 | / | 25.9 | 2.3 | -5.8
Cc1ccc(C)c(-n2c(SCC(=O)N3CCCC3)nnc2-c2ccccn2)c1 | 0.1 | -1.0 | 46.0* | / | / | -0.3
CCOc1ccccc1-n1c(SCC(N)=O)nnc1-c1ccc(O)cc1 | -0.9 | -1.1 | 53.9* | 3.7 | 8.8 | -5.9
CCOC(=O)CCSc1nnc(-c2cccnc2)n1-c1ccccc1OC | 0.6 | 1.6 | 1.4 | 7.7 | 67.2* | -2.5
CCOc1ccccc1-n1c(SCC(=O)N2CCOCC2)nnc1-c1ccccn1 | / | -1.3 | 21.4 | 7.8 | 41.8* | -3.0
COc1ccccc1-n1c(SCC(N)=O)nnc1-c1ccccc1 | -2.6 | 2.3 | -7.2 | 2.5 | -0.5 | -27.6
CN1CCN(C(=O)C[C@H]2CC[C@H]3[C@@H](COC[C@H](O)CN3C(=O)Nc3ccc(Cl)cc3)O2)CC1 | / | -3.3 | 4.2 | / | / | 4.9
N#Cc1cc2nc(O)c(O)nc2cc1[N+](=O)[O-] | 0.5 | -1.8 | 2.9 | 51.1* | -2.5 | -12.3
COc1ccc(OC)c(-n2c(-c3ccccc3)n[nH]c2=S)c1 | 0.9 | -4.0 | -24.2 | 4.3 | 36.8* | -28.1
COC(=O)c1c(N2C(=O)[C@H]3[C@@H](C2=O)[C@]2(C(=O)Nc4c(C)cc(C)cc42)N2CCC[C@@H]32)sc(C)c1C | 0.2 | -1.3 | 2.7 | -3.0 | 65.5* | -4.6
C=CCN1C=C2C(=O)C(C)(OC(=O)CCC(=O)OC)C(=O)C=C2C=C1C1CC1 (stereo not drawn) | -0.1 | 0.4 | 2.7 | -6.0 | -1.4 | -0.1
COC(=O)CCC(=O)OC1(C)C(=O)C=C2C=C(C3CC3)N(CCc3ccccn3)C=C2C1=O (stereo not drawn) | 0.0 | -1.9 | 11.1* | -0.2 | 0.7 | -5.7
